The numbers were not newly measured in US20050096323A1, “Diketopiperazine derivatives to inhibit thrombin” (NovoScience Pharma Inc., priority 1999, published 2005), which cites them from elsewhere.

In this series the target is thrombin (Homo sapiens, UniProt P00734). As to conditions: literature value; cited from earlier work.

Structures are written as SMILES. pKi: −log10 of the molar value.

`CC1CNc2c(cccc2S(=O)(=O)N[C@@H](CCCNC(=N)N)C(=O)N2CC[C@@H](C)C[C@@H]2C(=O)O)C1` (stereo partly shown) [Argatroban, reference compound]: the pKi is 9.72.
